Usually Kb stands for the equilibrium dissociation constant of an antagonist, usually derived from a functional assay. The term Ki denotes the dissociation constant of the complex between target and ligand, obtained from inhibition or displacement. A lower Ki goes with a stronger hold on the target.

Amino acid sequences for entries named in this document (tags omitted).
UniProt P41143, whole entry: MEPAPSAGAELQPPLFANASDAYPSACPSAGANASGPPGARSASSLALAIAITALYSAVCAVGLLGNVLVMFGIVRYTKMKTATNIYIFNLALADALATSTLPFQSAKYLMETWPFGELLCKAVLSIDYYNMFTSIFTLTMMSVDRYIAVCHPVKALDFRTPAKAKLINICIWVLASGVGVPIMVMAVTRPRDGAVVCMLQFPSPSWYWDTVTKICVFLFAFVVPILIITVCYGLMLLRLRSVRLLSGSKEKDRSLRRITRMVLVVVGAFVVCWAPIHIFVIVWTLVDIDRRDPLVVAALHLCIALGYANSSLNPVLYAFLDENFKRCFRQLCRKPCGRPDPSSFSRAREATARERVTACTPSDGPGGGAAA
UniProt P35372, whole entry: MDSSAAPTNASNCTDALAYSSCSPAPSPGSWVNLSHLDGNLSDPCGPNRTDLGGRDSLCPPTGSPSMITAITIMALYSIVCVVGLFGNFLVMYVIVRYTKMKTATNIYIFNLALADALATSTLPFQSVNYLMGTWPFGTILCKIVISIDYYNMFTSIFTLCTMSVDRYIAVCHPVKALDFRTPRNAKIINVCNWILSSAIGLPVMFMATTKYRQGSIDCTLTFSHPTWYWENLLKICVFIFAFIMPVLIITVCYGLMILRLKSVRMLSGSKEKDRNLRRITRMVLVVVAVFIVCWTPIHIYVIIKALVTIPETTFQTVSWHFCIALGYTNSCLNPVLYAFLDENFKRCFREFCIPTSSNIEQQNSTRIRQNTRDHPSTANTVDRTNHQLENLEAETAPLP

The record followed here is ChEMBL document CHEMBL1921714, “Discovery of aminobenzyloxyarylamides as κ opioid receptor selective antagonists: application to preclinical development of a κ opioid receptor antagonist receptor occupancy tracer” (J Med Chem, 2011).

For assay [1], the target named is T1, Delta-type opioid receptor (Homo sapiens, UniProt P41143). Description: Antagonist activity at human opioid delta receptor expressed in HEK293 cells assessed as inhibition of DPDPE-induced [35S]GTP-gamma-S binding after 4 hrs by scintillation counting. Type of assay: functional, cell-based. For orientation: GTPγS resists hydrolysis and so accumulates on activated G proteins.

The target of assay [2] is T2, Mu-type opioid receptor (Homo sapiens, UniProt P35372). Nature of the assay: Displacement of [3H]diprenorphine from human opioid mu receptor expressed in CHO cells after 120 mins by scintillation counting. The assay is classed as cell-based. The method in brief:
(§1)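 11-point curves, 0.01 nM–1 μM final. 120 min at 22 °C, then filtration and scintillation counting. Nonspecific binding set by 10 μM naltrexone. Four-parameter IC50; Ki by Cheng–Prusoff.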
A general note: Displacement assays read how much labelled ligand stays bound in the presence of the test substance.

Assay [3] concerns the target T1, Delta-type opioid receptor. Description: Displacement of [3H]diprenorphine from human opioid delta receptor expressed in HEK293 cells after 120 mins by scintillation counting. The assay is classed as cell-based. The gist of the method:
as §1

The target in assay [4] is T2, Mu-type opioid receptor. Description: Antagonist activity at human opioid mu receptor expressed in CHO cells assessed as inhibition of DAMGO-induced [35S]GTP-gamma-S binding after 4 hrs by scintillation counting. The assay is classed as functional, cell-based.

Turning to `CC(C)[C@@H](CN1CC[C@@](C)(c2cccc(O)c2)[C@@H](C)C1)NC(=O)[C@H]1Cc2ccc(O)cc2CN1` [JDTIC], the Kb in assay [1] is 168 nM; at Mu-type opioid receptor [4] it was 6.58 nM. The Ki at Mu-type opioid receptor [2] turned out to be 11.5 nM; in assay [3], 188 nM.
